Laboratory results from US20250171463A1 (BIOGEN MA INC., priority 2022, published 2025).

Chains of the proteins cited; added tags and fusions are not shown.
UniProt Q15125, whole entry: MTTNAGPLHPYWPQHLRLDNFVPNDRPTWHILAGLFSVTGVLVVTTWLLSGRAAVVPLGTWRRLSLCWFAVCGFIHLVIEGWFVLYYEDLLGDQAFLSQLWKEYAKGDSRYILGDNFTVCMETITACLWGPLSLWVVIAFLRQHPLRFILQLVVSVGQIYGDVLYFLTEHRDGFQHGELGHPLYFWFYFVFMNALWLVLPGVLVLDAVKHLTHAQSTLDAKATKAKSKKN

These molecules were tested against EBP (Homo sapiens, UniProt Q15125) (assay: EBP Functional Assay (EBP immunoaffinity LC-MS assay)). Details: read-out: EBP Functional Assay; EBP enzyme from HEK293T cells; 30 min with inhibitor, then zymosterol-d5, 37° C., 4 h; percent conversion to dehydrolathosterol-d5 by LC-APCI MRM MS.
Procedure: The EBP immunoaffinity (IA) LC-MS assay measures the potency of small molecule inhibitors of EBP by quantifying their concentration-dependent changes in the enzyme's substrate and product using liquid chromatography atmospheric pressure chemical ionization multiple reaction monitoring mass spectrometry (LC-APCI MRM MS). HEK293T cells were utilized as the source of EBP enzyme. The enzyme was incubated with the small molecule inhibitors at variable concentrations for 30 min. Deuterated form of EBP substrate, zymosterol-d5 (Avanti Polar Lipids, Cat #700068P-1 mg), was then added and the plate was incubated at 37° C. for 4 h. Finally, the sterol isomers were extracted and injected to LC-APCI MRM MS. MRM transition used for the quantification for both zymosterol and […] (substrate and product of EBP enzymatic reaction, respectively) is 372.3-203.2, CE 30 and DP 80 in positive ion mode. Percent conversion of the zymosterol-d5 to dehydrolathosterol-d5 was used to derive IC50 curves. Tasin-1 (1′-[(4-Methoxyphenyl)sulfonyl]-4-methyl-1,4′-bipiperidine, CAS 792927-06-1) was used as the reference small molecule inhibitor.
Percent conversion versus the compound concentration data were fit to the following 4-parameter logistic model to generate IC50 curves: […]

Question: How did the IC50 turn out when `Cc1nc(C(F)(F)F)ccc1S(=O)(=O)N1CC2(CN(C3[C@@H](C)COC[C@@H]3C)C2)C1` (relative stereo) was run?
Answer: The IC50 was < 100 nM.

Question: `Cc1nc(C(F)(F)F)ccc1S(=O)(=O)N1CC2(CN(C3[C@H](C)COC[C@@H]3C)C2)C1` (single isomer, unassigned) was tested. Which IC50 did it give?
Answer: Its IC50 is < 100 nM.

Question: Which IC50 does the source give for `Cc1nc(C(F)(F)F)ccc1S(=O)(=O)N1CC2(CN([C@@H]3CCOC[C@@H]3F)C2)C1` (relative stereo) here?
Answer: Its IC50 is 100 to 250 nM.

Question: With `Cc1nc(C(F)(F)F)ccc1S(=O)(=O)N1CC2(CN(C3CCOC(C)C3)C2)C1` (single isomer, unassigned) as the molecule, how does the IC50 read?
Answer: Its IC50 is < 100 nM.

Question: With `Cc1nc(C(F)(F)F)ccc1S(=O)(=O)N1CC2(CN([C@H]3CCOC[C@@H]3F)C2)C1` (relative stereo) as the molecule, how does the IC50 read?
Answer: The IC50 was 250 to 4000 nM.
